This note sets out measurements from US9844534B2, “PKC delta inhibitors for use as therapeutics” (Faller & Williams Technology, LLC, priority 2012, dated 2017).

Protein sequences, listed by entry. Tags and fused reporters are not part of them.
UniProt Q05655, whole entry: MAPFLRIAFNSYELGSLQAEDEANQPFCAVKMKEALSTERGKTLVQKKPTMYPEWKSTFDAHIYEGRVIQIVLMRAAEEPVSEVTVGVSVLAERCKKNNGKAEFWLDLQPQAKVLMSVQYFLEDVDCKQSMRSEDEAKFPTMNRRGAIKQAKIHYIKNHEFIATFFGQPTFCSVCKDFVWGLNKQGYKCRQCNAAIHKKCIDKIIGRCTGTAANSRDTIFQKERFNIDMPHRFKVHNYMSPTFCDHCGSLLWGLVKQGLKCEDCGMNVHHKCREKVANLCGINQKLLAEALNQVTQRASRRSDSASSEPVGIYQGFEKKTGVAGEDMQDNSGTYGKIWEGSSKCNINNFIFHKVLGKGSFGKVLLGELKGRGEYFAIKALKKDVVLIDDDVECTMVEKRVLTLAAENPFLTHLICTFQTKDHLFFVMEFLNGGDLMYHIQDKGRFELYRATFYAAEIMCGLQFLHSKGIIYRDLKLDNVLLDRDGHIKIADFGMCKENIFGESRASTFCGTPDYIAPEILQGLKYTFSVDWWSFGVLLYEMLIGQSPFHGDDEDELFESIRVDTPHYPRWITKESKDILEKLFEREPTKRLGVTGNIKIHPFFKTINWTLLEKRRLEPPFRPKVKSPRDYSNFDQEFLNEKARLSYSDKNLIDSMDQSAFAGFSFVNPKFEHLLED

Assay [1] deals with H727 cells. Description: Cell proliferation assay (MTT/MTS).
The next assay has as its system CNDT 2.5 cells. Description: Cell proliferation assay (MTT/MTS).
Another assay deals with BON1 cells. Description: Cell proliferation assay (MTT/MTS).
A further assay addresses PKC delta (Homo sapiens, UniProt Q05655). Description: PKC kinase activity assay (Omnia Kinase Assay). The note with it: read-out: PKC delta inhibitory activity IC50; comparative analysis. In kind it is biochemical. The protocol:
PKC Kinase Activity Assays: Assays were carried out using recombinant PKC alpha or PKC gamma, (Invitrogen) and the Omnia® Kinase Assays (Invitrogen) with a “PKC kinase-specific” peptide substrate. Incorporation of a chelation-enhanced fluorophore (CHEF) results in an increase in fluorescence ex360/em485) upon phosphorylation. The kit was used according to the manufacturer's instructions.

Assay [2] has as its system H727 cells. Description: Cytotoxicity assay (LDH release). The note with it: H727, p<0.003.

Turning to `CC1(C)C=Cc2cc(CCn3c4ccccc4c4ccccc43)cc(C(=O)/C=C/c3ccccc3)c2O1`, the “reduction in cell numbers” value in the assay with H727 cells [1] (H727, by 72 hrs, highest concentrations tested) is 80%; with CNDT 2.5 cells (CNDT 2.5, by 72 hrs, highest concentrations tested) it was 80%; in the assay on BON1 cells (BON1, by 72 hrs, highest concentrations tested) it was 80%. In addition, the IC50 with H727 cells [1] (read-out: IC50, decrease in cell number, H727, by 48 hrs) was determined as 12 µM; in the assay with CNDT 2.5 cells (read-out: IC50, decrease in cell number, CNDT 2.5, by 48 hrs) it was 12 µM; in the assay with BON1 cells (read-out: IC50, decrease in cell number, BON1, by 48 hrs), 12 µM; at PKC delta, 900 nM. Further, the “LDH release versus vehicle control, significance” value with H727 cells [2] is on record as “reached significance by 24 hr of exposure”.
